Literature values as cited in PMC3095849 (Bioorganic & medicinal chemistry, 2011).

By UniProt entry, the sequences of proteins in these tests, tags left out. Where a name states a change or a piece, a line headed by the entry shows the natural chain unless it says otherwise.
UniProt P41145: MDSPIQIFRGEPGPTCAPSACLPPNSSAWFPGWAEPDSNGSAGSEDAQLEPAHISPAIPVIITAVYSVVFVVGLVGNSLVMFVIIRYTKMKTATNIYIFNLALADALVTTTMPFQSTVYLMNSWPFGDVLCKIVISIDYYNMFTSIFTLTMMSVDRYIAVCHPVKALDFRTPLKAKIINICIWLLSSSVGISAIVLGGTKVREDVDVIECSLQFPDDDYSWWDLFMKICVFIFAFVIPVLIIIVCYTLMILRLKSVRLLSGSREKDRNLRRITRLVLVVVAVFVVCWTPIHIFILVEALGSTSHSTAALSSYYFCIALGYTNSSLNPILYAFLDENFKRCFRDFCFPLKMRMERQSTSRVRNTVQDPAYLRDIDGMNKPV

Target: human κ opioid receptor (Homo sapiens, UniProt P41145)
Conditions: cited from earlier work

For `Oc1ccc2c(c1)[C@@]13CCCC[C@H]1[C@@H](C2)N(CC1CCC1)CC3` [Compound 1, butorphan], the “Selectivity μ : κ : δ” value is listed as 3/1/75.
